# Data published in PubChem BioAssay AID504847 (National Center for Advancing Translational Sciences (NCATS), 2011).
# By UniProt entry, the sequences of proteins in these tests, tags left out.
# UniProt P11473, whole entry: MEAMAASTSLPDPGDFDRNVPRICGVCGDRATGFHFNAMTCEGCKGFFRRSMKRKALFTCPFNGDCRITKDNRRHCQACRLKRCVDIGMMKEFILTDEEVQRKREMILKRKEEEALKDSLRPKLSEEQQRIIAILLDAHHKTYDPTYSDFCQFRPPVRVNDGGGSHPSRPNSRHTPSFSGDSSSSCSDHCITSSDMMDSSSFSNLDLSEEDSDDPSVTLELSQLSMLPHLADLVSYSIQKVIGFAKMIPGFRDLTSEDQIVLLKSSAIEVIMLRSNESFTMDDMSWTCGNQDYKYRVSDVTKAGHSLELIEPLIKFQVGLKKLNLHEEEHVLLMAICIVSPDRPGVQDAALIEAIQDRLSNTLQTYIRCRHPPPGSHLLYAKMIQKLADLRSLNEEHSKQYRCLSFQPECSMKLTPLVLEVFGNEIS
# Values joined by “and” are separate entries in the source; they are usually repeats but may differ in a detail not shown here. Equal entries are not always repeated. This is a selection; strong and weak results do not stand in their true shares. Records with an inconclusive call do not appear. Active and inactive are the calls of the source. Calls come from the whole dose curve; as a rule, active = well fitted inhibition curve with a large enough effect; inconclusive = small, poorly fitted or top-dose-only effect, or another doubt; inactive = no such curve, though single readings can be large or run the other way.
# Target: Vitamin D3 receptor (Homo sapiens) (UniProt P11473)
# Assay: Inhibitors of the vitamin D receptor (VDR): qHTS
# Details: VDR-SRC2-3 peptide fluorescence polarization, 2 h; max response, negative = inhibition: hits give low values
# % is set by controls: 0 for no effect and ±100 for the full control effect.
row,Compound,"max response, negative = inhibition"
1,COc1cc(C2NCCC3(OCCO3)C2(C)C)cc(OC)c1OC.O=[N+]([O-])c1cc([N+](=O)[O-])c(O)c([N+](=O)[O-])c1 (stereo not drawn),inactive: -23.5%
2,Cc1ccc(C(=O)OC2CN3CCC2CC3)cc1 (stereo not drawn),inactive: -10.8%
3,CC1CCC(C(C)C)C(OP(=O)(Nc2ccccn2)c2ccccc2)C1 (stereo not drawn),inactive: -5.01%
4,Cc1nn(-c2ccccc2)c2c1P(=O)(N1CCOCC1)N(C)C(c1ccccc1)=N2 (stereo not drawn),inactive: -3.41%
5,O=[As](O)(c1cccs1)c1cccs1,inactive: -18.8%
6,NS(=O)(=O)c1cccc(NC(=O)COC(=O)C(O)(c2ccccc2)c2ccccc2)c1,inactive: 7.9%
7,O=P1(Nc2ccc(Br)cn2)COc2ccccc2OC1,inactive: -4.24%
8,CCCOc1ccc(NP(C)(=O)Oc2ccc(Cl)cc2)cc1 (stereo not drawn),inactive: -5.05%
9,CP(=O)(Nc1ccc(SC(F)(F)F)cc1)Oc1ccccc1 (stereo not drawn),inactive: -20.6%
10,Nc1cccc([As](=O)(O)c2ccccc2)c1,inactive: -20.3%
11,CN1CCCCC1COC(=O)C1(O)c2ccccc2CCc2ccccc21 (stereo not drawn),inactive: 3.57%
12,O=P1(Nc2ncccn2)COc2ccccc2OC1,inactive: -25%
13,CC(C)(C)C(=O)NC(Sc1ncccn1)C(Cl)(Cl)Cl (stereo not drawn),inactive: -24.7%
14,CC(C)N(CCCl)C(C)C,inactive: -5.21%
15,Clc1n[nH]nc1-c1nn[nH][15n]1,inactive: -3.1%
16,CCOP(=O)(Nc1ccc(C)cn1)OCC,inactive: -14.6%
17,CN(CCCl)Cc1cc(Cl)c(NC2=NCCN2)c(Cl)c1,inactive: 4.06% and inactive: 2.5%
18,O=[N+]([O-])c1cc([N+](=O)[O-])c(-n2nnc3ccccc32)c([N+](=O)[O-])c1,inactive: 16.1%
19,CCOP(=O)(NC(=NC(C)c1ccccc1)NC(C)c1ccccc1)OCC (stereo not drawn),inactive: -0.793%
20,CCC1=CC2Cc3nc4ccc(Cl)cc4c(N)c3C(C1)C2 (stereo not drawn),inactive: -9.8%
21,O=P1(Nc2ccccn2)COc2ccccc2OC1,inactive: -1.55%
22,CC1(CBr)Cn2c(nc3ccccc3c2=O)S1 (stereo not drawn),inactive: -18.1%
23,CC(C)/C=N\N=C(\N)N[N+](=O)[O-],inactive: 2.2%
24,COc1ccccc1CNC(=O)COC(=O)C(O)(c1ccccc1)c1ccccc1,inactive: -20.7%

row,Compound,"max response, negative = inhibition"
1,O=[N+]([O-])c1cc([N+](=O)[O-])c(-c2cnn(-c3ccccc3)c2)c([N+](=O)[O-])c1,inactive: 10.5%
2,Cc1cc(C)cc(OP(C)(=O)Nc2ccc(C)cc2C)c1 (stereo not drawn),inactive: -2.05%
3,O=[As](O)(c1cccc(O)c1)c1cccc(O)c1,inactive: -3.87%
4,COc1ccccc1OP(C)(=O)Nc1cccc(Br)c1 (stereo not drawn),inactive: 6.55%
5,CS(=O)(=O)c1ccc(Cl)c(NC(=O)COC(=O)C(O)(c2ccccc2)c2ccccc2)c1,inactive: -10.5%
6,O=[As](O)(O)c1cccnc1,inactive: 11%
7,COc1cc(C(=O)NCC2(N3CCOCC3)CCCCC2)cc(Cl)c1OC(C)C,inactive: 6.45%
8,CN(C(=O)Cc1ccc(Cl)c(Cl)c1)[C@@H]1CC[C@]2(CCCO2)C[C@H]1N1CCCC1,inactive: 2.08%
9,O=C(OC1CN2CCC1CC2)c1ccc(Cl)cc1 (stereo not drawn),inactive: -5.79%
10,CCOP(=O)(Nc1cccc2ccccc12)OCC,inactive: 0.456%
11,Cc1ccc(C)c(NP(C)(=O)Oc2ccccc2)c1 (stereo not drawn),inactive: 0.507%
12,CCCOP(=S)(Nc1nc(N)cc(=O)[nH]1)OCCC,inactive: -4.97%
13,Cc1ccc(NCCc2c([N+](=O)[O-])cc([N+](=O)[O-])cc2[N+](=O)[O-])cc1,inactive: -13.1%
14,Nc1cccc2c([As](=O)(O)O)cccc12,inactive: -25.3%
15,Cc1cc(C)cc(OP(C)(=O)Nc2ccccn2)c1 (stereo not drawn),inactive: 7.64%
16,CP(=O)(Nc1cccc(Br)c1)Oc1ccccc1 (stereo not drawn),inactive: -4.39%
17,O=C(O)COc1ccc([As](=O)(O)O)cc1[N+](=O)[O-],inactive: -0.352%
18,Nc1ccccc1[As](=O)(O)c1ccccc1,inactive: 7.44%
19,O=[N+]([O-])c1cccc([N+](=O)[O-])c1,inactive: -1.54%
20,CCOP1(=S)c2c(C)nn(CCC#N)c2N=C(c2ccccc2F)N1C (stereo not drawn),inactive: -12.2%
21,CC1=NCCc2c1[nH]c1ccccc21.O=[N+]([O-])c1cc([N+](=O)[O-])c(O)c([N+](=O)[O-])c1,inactive: -14.4%
22,CN(C(=O)Cc1ccc(Cl)c(Cl)c1)[C@H]1CC[C@@]2(CCCO2)C[C@@H]1N1CCCC1,inactive: -21.6%
23,O=[N+]([O-])c1ccc2c(c1)nnn2O,inactive: -9.97%
24,CN(C)C(=O)c1cc([N+](=O)[O-])cc2c1-c1c(cc([N+](=O)[O-])cc1[N+](=O)[O-])C2=O,inactive: -23.6%
